{
  "source": "patent US8642784B2",
  "about": "“Biologically active compound N-[3-(4-nitrophenylamino)-indole-2-ilmethylene]aminoguanidine hydrochloride with anti-inflammatory activity” (priority 2010, dated 2014)",
  "origin": "cited, not measured here",
  "target": "inducible isoenzymes of NO-synthase (Homo sapiens, UniProt P35228)",
  "settings": "most in vitro systems; cited from earlier work",
  "data": [
    {"compound": "CNC(=N)NCCC[C@H](N)C(=O)O", "note": "[L-NMMA, NG-monomethyl-L-arginine]", "values": [
      {"measurement": "Inhibition of inducible isoenzymes of NO-synthase", "result": "equally effective in inhibiting inducible isoenzymes"}
    ]}
  ]
}
